The values below come from ChEMBL document CHEMBL3886269, “Pyrrolidine-fused thiadiazine dioxide compounds as BACE inhibitors, compositions, and their use” (2015).

This test has as its target T1, Beta-secretase 2 (Homo sapiens, UniProt Q9Y5Z0).
T1 sequence (Q9Y5Z0 whole entry): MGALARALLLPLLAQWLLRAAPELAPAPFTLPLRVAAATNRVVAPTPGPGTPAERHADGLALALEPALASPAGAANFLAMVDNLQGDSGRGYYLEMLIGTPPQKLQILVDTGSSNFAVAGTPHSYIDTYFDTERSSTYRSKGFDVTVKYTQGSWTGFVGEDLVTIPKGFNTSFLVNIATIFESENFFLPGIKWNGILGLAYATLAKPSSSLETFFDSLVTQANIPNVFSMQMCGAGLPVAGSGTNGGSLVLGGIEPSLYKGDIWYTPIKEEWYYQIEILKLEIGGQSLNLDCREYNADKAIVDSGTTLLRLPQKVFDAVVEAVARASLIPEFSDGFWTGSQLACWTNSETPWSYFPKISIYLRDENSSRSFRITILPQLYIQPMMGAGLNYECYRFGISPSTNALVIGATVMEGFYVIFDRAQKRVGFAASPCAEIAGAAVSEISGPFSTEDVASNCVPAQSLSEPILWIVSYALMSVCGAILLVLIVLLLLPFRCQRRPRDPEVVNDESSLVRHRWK
The test can be described thus: Time-Resolved Endpoint Proteolysis Assay: Inhibitor IC50s at purified human autoBACE-2 were determined in a time-resolved endpoint proteolysis assay that measures hydrolysis of the QSY7-[…]-Eu-amide FRET peptide substrate (BACE-HTRF assay). BACE-mediated hydrolysis of this peptide results in an increase in relative fluorescence (RFU) at 620 nm after excitation with 320 nm light. In general terms: TR-FRET usually uses a lanthanide donor and a delayed reading to cut background.

As a reminder, the Ki is the equilibrium dissociation constant of an inhibitor or competing ligand from its target. The low end stands for higher affinity, the high end for lower affinity.

For the compound `CCc1nc(N2CC3C(c4ccccc4)(C2)NC(=N)N(C)S3(=O)=O)nc(OC)c1F` (racemic), the Ki amounted to 21 nM.
